# Test results taken from BindingDB's records for PubMed 9454810 (Sanofi Recherche, 1998).
# By UniProt entry, the sequences of proteins in these tests, tags left out.
# UniProt P20272, whole entry: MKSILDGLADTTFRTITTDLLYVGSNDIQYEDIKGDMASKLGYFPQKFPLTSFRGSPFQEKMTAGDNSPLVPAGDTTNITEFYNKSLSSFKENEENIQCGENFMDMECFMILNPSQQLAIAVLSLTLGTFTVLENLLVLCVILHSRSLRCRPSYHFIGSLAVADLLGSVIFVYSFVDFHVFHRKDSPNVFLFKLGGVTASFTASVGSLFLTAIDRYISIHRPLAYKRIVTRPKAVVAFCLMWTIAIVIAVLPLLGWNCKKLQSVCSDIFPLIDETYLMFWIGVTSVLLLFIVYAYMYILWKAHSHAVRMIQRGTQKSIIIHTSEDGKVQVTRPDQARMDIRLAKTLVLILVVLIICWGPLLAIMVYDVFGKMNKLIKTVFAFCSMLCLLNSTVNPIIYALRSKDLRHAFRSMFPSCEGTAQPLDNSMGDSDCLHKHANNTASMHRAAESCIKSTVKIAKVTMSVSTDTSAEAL
# UniProt P21554, whole entry: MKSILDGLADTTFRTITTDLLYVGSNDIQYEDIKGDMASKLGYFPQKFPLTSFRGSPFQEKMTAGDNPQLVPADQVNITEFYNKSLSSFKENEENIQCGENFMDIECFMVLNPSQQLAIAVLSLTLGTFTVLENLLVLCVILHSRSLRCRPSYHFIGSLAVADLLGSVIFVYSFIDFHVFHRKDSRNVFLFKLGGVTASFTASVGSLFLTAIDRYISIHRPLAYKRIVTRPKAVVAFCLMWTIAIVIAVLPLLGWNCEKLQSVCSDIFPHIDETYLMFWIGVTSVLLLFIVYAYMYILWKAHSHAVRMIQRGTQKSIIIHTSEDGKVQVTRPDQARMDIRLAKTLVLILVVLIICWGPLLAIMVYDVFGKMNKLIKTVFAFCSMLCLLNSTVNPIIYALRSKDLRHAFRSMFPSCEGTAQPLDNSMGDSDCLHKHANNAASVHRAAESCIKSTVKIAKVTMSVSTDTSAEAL
# What was measured:
# [1] = target: T1, Cannabinoid receptor 2 (Rattus norvegicus, UniProt Q9QZN9)
# T1 sequence (Q9QZN9 whole entry): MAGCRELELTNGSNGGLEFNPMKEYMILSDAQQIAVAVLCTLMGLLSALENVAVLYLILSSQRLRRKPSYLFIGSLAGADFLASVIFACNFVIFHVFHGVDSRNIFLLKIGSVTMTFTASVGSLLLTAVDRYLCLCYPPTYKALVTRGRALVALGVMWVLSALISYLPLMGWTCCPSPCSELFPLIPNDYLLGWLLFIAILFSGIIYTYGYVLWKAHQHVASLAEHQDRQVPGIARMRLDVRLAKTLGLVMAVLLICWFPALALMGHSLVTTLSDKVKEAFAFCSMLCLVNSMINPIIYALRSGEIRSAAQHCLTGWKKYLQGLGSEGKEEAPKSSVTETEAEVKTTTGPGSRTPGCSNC
# [2] = target: Cannabinoid receptor 1 (Rattus norvegicus, UniProt P20272)
# [3] = target: Cannabinoid receptor 1 (Homo sapiens, UniProt P21554)
structure (smiles),measurement,setting,value
"Cc1ccc(Cn2nc(C(=O)NC3C(C)(C)C4CC[C@@]3(C)C4)cc2-c2ccc(Cl)c(C)c2)cc1 (stereo partly drawn) [N-(1,3,3-trimethylbicyclo(2.2.1)heptan-2-yl)-5-(4-chloro-3-methylphenyl)-1-(4-methylbenzyl)pyrazole-3-carboxamide]",Ki,[1],0.3 nM
same,Ki,[2],305 nM
same,Ki,[3],437 nM
